Experimental findings from patent publication US4988691A (priority 1989, dated 1991) are described below.

By UniProt entry, the sequences of proteins in these tests, tags left out. Residues count along the entry.
UniProt H0W1Z3, 1-590: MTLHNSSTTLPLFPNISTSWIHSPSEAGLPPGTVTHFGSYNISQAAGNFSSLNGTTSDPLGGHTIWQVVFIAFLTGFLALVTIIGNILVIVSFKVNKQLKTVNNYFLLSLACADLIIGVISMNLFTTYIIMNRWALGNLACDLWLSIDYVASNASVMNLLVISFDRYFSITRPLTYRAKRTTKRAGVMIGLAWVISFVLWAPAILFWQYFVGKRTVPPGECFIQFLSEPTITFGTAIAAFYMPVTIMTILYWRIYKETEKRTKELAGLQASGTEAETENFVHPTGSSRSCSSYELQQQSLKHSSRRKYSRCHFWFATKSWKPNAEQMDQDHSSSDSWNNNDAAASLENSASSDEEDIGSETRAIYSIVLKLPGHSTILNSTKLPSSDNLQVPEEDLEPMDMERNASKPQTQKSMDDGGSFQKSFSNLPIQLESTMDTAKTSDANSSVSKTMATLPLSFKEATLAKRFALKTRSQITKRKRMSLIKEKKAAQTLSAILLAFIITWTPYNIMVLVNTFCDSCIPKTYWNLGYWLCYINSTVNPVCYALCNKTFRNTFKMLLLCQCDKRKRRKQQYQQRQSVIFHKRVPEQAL

The test concerns the target T1, contracturing effect of acetylcholine (Cavia porcellus, UniProt H0W1Z3).
T1 construct: Segments measuring 5-6 cm were drawn form the end portion of the small intestine; from tissue; host or cells: guinea pig terminal small intestine (ileum)
In words: anticholinergic activity in vitro (contracturing effect of acetylcholine on isolated guinea pig small intestine). The arrangement: species or system Guinea pigs.

Structures are written as SMILES.

The molecule `CN1[C@@H]2CC[C@H]1C[C@@H](OC(=O)C(CO)c1ccccc1)C2` (stereo partly shown) [Atropine, reference compound] showed a Kb of 0.794 nM.
